By UniProt entry, the sequences of proteins in these tests, tags left out. Residues count along the entry.
UniProt Q9NP99, 21-234: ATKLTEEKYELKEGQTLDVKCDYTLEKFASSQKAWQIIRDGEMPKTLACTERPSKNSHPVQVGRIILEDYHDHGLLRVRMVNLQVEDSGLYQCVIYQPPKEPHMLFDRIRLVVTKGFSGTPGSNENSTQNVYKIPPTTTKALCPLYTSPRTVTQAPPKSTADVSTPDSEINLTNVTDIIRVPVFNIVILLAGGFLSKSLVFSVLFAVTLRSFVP

According to patent publication US20150018528A1 (Novo Nordisk, published 2015):

Molecular target: human TREM-1 on BWZ.36/hTREM-1:DAP12:NFAT-LacZ reporter cells (human, UniProt Q9NP99 21-234)
Assay: cell-based or functional assay

Fold activity of BWZ/hTREM1 reporter cells co-incubated with transfected HEK293 6E cells, without PGN, against empty vector: 2 fold
B1: hPGLYRP1-GPI on HEK293-6E cells (ligand, human, UniProt O75594 22-196, looked up)
chain: QETEDPACCSPIVPRNEWKALASECAQHLSLPLRYVVVSHTAGSSCNTPASCQQQARNVQHYHMKTLGWCDVGYNFLIGEDGLVYEGRGWNFTGAHSGHLWNPMSIGISFMGNYMDRVPTPQAIRAAQGLLACGVAQGALRSNYVLKGHRDVQRTLSPGNQLYHLIQNWPHYRSP
modifications: C-terminal GPI anchor
